{
  "source": "patent US20130123201A1",
  "about": "“MODULATION OF CYTOKINE-INDUCED CHRONIC INFLAMMATORY RESPONSES” (UNIVERSITY OF MANITOBA, priority 2010, published 2013)",
  "format_in_all_cases": "cell-based",
  "key": {"[1]": {"tested_on": "human monocytic THP-1 cells", "assay": "Cellular cytotoxicity by LDH release", "conditions": "AHA-labeled THP-1 cells, cytokine 10 ng/ml, 4 hr, data not shown"}, "[2]": {"tested_on": "Human THP-1 monocytic cells", "assay": "qRT-PCR kinetics of cytokine-induced gene expression of identified candidates", "source_text": "Quantitative real-time PCR (qRT-PCR): RNA was isolated using the Qiagen RNeasy® kit as per the manufacturer's instructions (Rneasy is a registered trademark of Qiagen GmbH, Hilden, Fed. Rep. Germany). Gene expression was subsequently analyzed by qRT-PCR using SuperScript® III Platinum Two-Step qRT-PCR Kit with SYBR Green (SuperScript is a registered trademark of Invitrogen Corp., Carlsbad, Calif., USA), according to the manufacturer's instructions, in the ABI PRISM® 7300 sequence detection system (BI PRISM is a registered trademark of Applera Corp., Foster City, Calif., USA). Fold changes were calculated by the comparative Ct method as taught by Pfaffl (2001) after normalization with 18sRNA."}, "[3]": {"tested_on": "AHA-labeled human monocytic THP-1 cells", "assay": "ELISA of IL-8 production by AHA-labeled THP-1 cells", "conditions": "10 ng/ml, 4 hr, p<0.001", "procedure": "ELISA immunoassay: Tissue culture (TC) supernatants were centrifuged at 1500× g for 7 mM to obtain cell-free samples, aliquoted and stored at −20° C. until further use. Production of IL-8 was monitored using specific antibody pairs for ELISA (R&D Systems, Inc. Minneapolis, Minn., USA), as per the manufacturer's instructions. The concentration of IL-8 in the TC supernatants was evaluated by establishing a standard curve with serial dilutions of the recombinant human IL-8 as required.\nAHA labeling, biotin tagging of nascent proteins, and affinity purification: Cells were washed with warm D-PBS, and cultured in methionine-free, serum-free RPMI media at 37° C. 5% CO2 for 60 min. The cells were then incubated in 100 μM Click-iT® AHA (Invitrogen Canada Inc.) (CLICK-iT is a registered trademark of Molecular Probes Inc., Eugene, Oreg., USA) in methionine-free and serum-free RPMI media in the presence and absence of either TNF-α (10 ng/ml) or IL-1β (10 ng/ml) for 4 hr. TC supernatants were monitored for the production of IL-8 by ELISA. […]\nAHA-labeled human monocytic THP-1 cells were stimulated with either IL-1β (10 ng/ml) or TNF-α (10 ng/ml) for 4 hr. Cytokine treatment of AHA-labeled THP-1 cells was not cytotoxic as evaluated by monitoring LDH release in the tissue culture (TC) supernatant (data not shown). TC supernatants were also monitored for IL-8 production by ELISA. […]"}},
  "data": [
    {"substance": "TNF-α: Recombinant human cytokine TNF-α from eBioscience, used as stimulant", "values": [
      {"measurement": "Cytotoxicity of cytokine treatment (LDH release)", "setting": "[1]", "value": "not cytotoxic"},
      {"measurement": "Up-regulation of gene expression of PYGL", "setting": "[2]", "value": 1.5, "unit": "fold"},
      {"measurement": "Up-regulation of gene expression of RAB14 and Eifa3", "setting": "[2]; p≦0.01", "value": "but not"},
      {"measurement": "Production of IL-8", "setting": "[3]", "value": "significant"}
    ]}
  ]
}
